# This is a sample that favours compounds with a hit; in the whole collection about 16% have one here.
# TDP1 inh – inhibitors of human tyrosyl-DNA phosphodiesterase TDP1. Q9NUW8. recombinant TDP1, AlphaScreen DNA substrate cleavage. Potency, µM (doses to about 130 µM), without a hit: top-dose activity change, negative = inhibition, most hits filed as inhibitors. 350,000 compounds, 0.28% hits; also: potency is read from the fitted curve at half-maximal effect; % is scaled to controls: 0 for no effect and ±100 for the full control effect; nearly all actives have a fitted effect of over 40% in size
#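 Signal: AlphaScreen proximity between streptavidin donor and anti-FITC acceptor beads on intact substrate. Reaction: Tdp1 1 nM, substrate 15 nM final, 5 min RT after 15 min compound preincubation.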
# miR-21 FLuc – miR-21 reporter, rising signal; Potency, µM (titrated, usually from 38.3 µM), without a hit: at the highest dose reporter change, positive = more light; AID 2288; 340,000 tested, under 10 active; HeLa miR-21 FLuc reporter, luciferase, 48 h; active = well fitted rising curve with a large enough effect; inconclusive = small, poorly fitted or top-dose-only effect; inactive = no such curve, though single readings can be large or run the other way;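 note: % of control where 0% means no effect; miR-21 action dims this reporter so a rising signal means less miR-21 action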
#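 Luminescence from a firefly luciferase reporter carrying a miR-21 binding site downstream, stably expressed under a CMV promoter in HeLa cells that make miR-21 endogenously, reports miRNA modulation after 48 h compound exposure up to approximately 40uM final.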
# TDP1 cell noCPT – qHTS for Inhibitors of human tyrosyl-DNA phosphodiesterase 1 (TDP1): qHTS in cells in absence of CPT. DT40 Tdp1-/- hTDP1 cells, no CPT, ATP luminescence, 48 h. Potency, µM (titrated, usually from 46.2 µM), for inactives: at the highest dose activity change, negative = growth inhibition, usual class: inhibitors. 420,000 compounds, 15% hits. AID 686978, 2013; also: potency is read from the fitted curve at half-maximal effect; % is scaled to controls: 0 for no effect and ±100 for the full control effect; nearly all actives have a fitted effect of over 55% in size
#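 A cellular qHTS used chicken DT40 cells lacking endogenous Tdp1 but carrying stably transfected human TDP1. Compounds were applied without camptothecin, and cell growth kinetics were judged by ATP-dependent luminescence after ≥48 hr.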
# DT40 TDP1 CPT – DT40-hTDP1 cell growth loss with CPT. chicken DT40 Tdp1-/-;hTDP1 cells + 20 nM CPT, ATP luminescence, 48 h. Potency, µM (highest dose often 46.2 µM), for the others: at the top dose activity change, negative = growth inhibition, actives largely listed as inhibitors. 420,000 compounds, 12% hits; also: potency is read from the fitted curve at half-maximal effect; % is scaled to controls: 0 for no effect and ±100 for the full control effect; nearly all actives have a fitted effect of over 55% in size
#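 Chicken DT40 Tdp1-/- cells complemented with human TDP1, 400 cells/well, exposed to compounds plus 20 nM camptothecin for at least 48 h at 37 C; viability read as ATP content by CellTiter-Glo luminescence.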
# uPA surface inh – blocks generation of uPA at the cell surface | cell surface uPA generation assay, qHTS | Potency, µM (titrated, usually from 38.3 µM), for inactives: at the highest dose activity change, negative = inhibition, hits mostly inhibitors | 330,000 compounds, 0.31% hits; active = well fitted inhibition curve with a large enough effect; inconclusive = small, poorly fitted or top-dose-only effect; inactive = no such curve, though single readings can be large or run the other way; tested in mouse RAW 264.7 cells; also: potency is read from the fitted curve at half-maximal effect; % is scaled to controls: 0 for no effect and ±100 for the full control effect; nearly all actives have a fitted effect of over 55% in size
# Active calls of the source: *; ? = inconclusive; . = no result; [ ] = dose if it differs, or a comment. Unless noted, calls follow the shape of the dose curve; as a rule, active = well fitted curve in the direction sought with a large enough effect; inconclusive = small, poorly fitted or top-dose-only effect, or another doubt; inactive = no such curve, though single readings can be large; an effect the other way counts as inactive or inconclusive.
# Under each structure – TDP1 inh	miR-21 FLuc	TDP1 cell noCPT	DT40 TDP1 CPT	uPA surface inh
1. O=C(Nc1nc2ccccc2[nH]1)c1cccc(Cl)c1
→ 4%	-41%	?	?	?
2. CCCC(NCC(=O)Nc1cc(S(=O)(=O)N2CCOCC2)ccc1OC)c1ccccc1 (centres undefined)
→ 2%	.	15µM*	16µM*	?
3. COc1ccc(S(=O)(=O)N2CCOCC2)cc1NC(=O)Cc1ccccc1Cl
→ -3%	-3%	-13%	10%	-4%
4. COc1ccc(S(=O)(=O)N2CCOCC2)cc1NC(=O)CC(C)c1ccccc1 (centres undefined)
→ 1%	.	21µM*	-25%	14%
5. S=c1[nH]nc(-c2cc(-c3ccco3)[nH]n2)n1-c1ccccc1Cl
→ 3.5µM*	-19%	-19%	-8%	-1%
6. CC1=NN(c2nc(N)nc(/C(C#N)=C/c3ccc([N+](=O)[O-])o3)n2)C(C)(C)C1
→ .	.	0.46µM*	0.58µM*	-10%
7. CC1=NN(C(C#N)c2cccc([N+](=O)[O-])c2)C(C)(C)C1 (centres undefined)
→ 0%	-5%	-24%	-10%	-1%
8. NC(=O)CC(NC(=O)c1ccccc1)c1ccc(N2CCCCCCC2)c([N+](=O)[O-])c1 (centres undefined)
→ .	2%	9.2µM*	8.2µM*	-9%
9. NC(=O)CC(NC(=O)c1cccc(Br)c1)c1ccc(N2CCC(N3CCCC3)CC2)c([N+](=O)[O-])c1 (centres undefined)
→ 8%	-2%	-19%	5%	9%
10. NC(=O)CC(NC(=O)Cc1ccc(Br)cc1)c1ccc(N2CCC(Cc3ccccc3)CC2)c([N+](=O)[O-])c1 (centres undefined)
→ 4%	-4%	23µM*	?	-21%
11. NC(=O)CC(NC(=O)c1cccc(Br)c1)c1ccc(N2CCCCCC2)c([N+](=O)[O-])c1 (centres undefined)
→ .	7%	6.5µM*	5.8µM*	-7%
12. NC(=O)CC(NC(=O)c1ccc(Br)cc1)c1ccc(N2CCCCCC2)c([N+](=O)[O-])c1 (centres undefined)
→ .	18%	16µM*	16µM*	?
13. COc1ccc(Cl)cc1NS(=O)(=O)c1cccc2cccnc12
→ .	-4%	?	?	-2%
14. COc1ccc(CCN(C)C2CCCN(S(=O)(=O)C(C)C)C2)cc1OC (centres undefined)
→ .	-1%	0%	-12%	18%
15. COc1cccc(N2CC(NC(=O)C(=O)c3c(C)[nH]c4ccccc34)CC2=O)c1 (centres undefined)
→ -10%[0.505 µM]	.	-17%	-5%	9%
16. Cc1cccc(C)c1NC(=O)CN(C)C(=O)c1cc(S(=O)(=O)N2CCOCC2)ccc1N1CCCC1
→ -5%	.	-7%	0%	13%
17. CCOc1ccc(NC(=O)NCCc2c(C)nn(C)c2C)cc1
→ 6%	-1%	-27%	7%	.
18. Cc1ccc(C(=O)N/C(=C/c2ccccc2)C(=O)NCC2CCCO2)cc1 (centres undefined)
→ 0%	-1%	-16%	-7%	6%
19. Cc1ccccc1-c1nc(CN2CCN(C(=O)c3ccco3)CC2)c(C)o1
→ 5%	-7%	-24%	?	3%
20. CC(=O)N1CCN(c2ccc(C(N)=O)cc2[N+](=O)[O-])CC1
→ 0%	4%	-1%	-10%	-1%

# Complete entries, quoted from the list. Values in the order: TDP1 inh, miR-21 FLuc, TDP1 cell noCPT, DT40 TDP1 CPT, uPA surface inh
# Cc1ccccc1-c1nc(CN2CCN(C(=O)c3ccco3)CC2)c(C)o1 is entered as 5%, -7%, -24%, ?, 3%
# Cc1ccc(C(=O)N/C(=C/c2ccccc2)C(=O)NCC2CCCO2)cc1 (centres undefined) is entered as 0%, -1%, -16%, -7%, 6%
# COc1ccc(CCN(C)C2CCCN(S(=O)(=O)C(C)C)C2)cc1OC (centres undefined) is entered as ., -1%, 0%, -12%, 18%

# New compounds follow:
# Under each structure – TDP1 inh	miR-21 FLuc	TDP1 cell noCPT	DT40 TDP1 CPT	uPA surface inh
21. NC(=O)CC(NC(=O)Cc1ccc(Br)cc1)c1ccc(N2CCC(N3CCCC3)CC2)c([N+](=O)[O-])c1 (centres undefined)
→ .	-5%	-16%	-5%	7%
22. CN1CCN(c2ccc(C(=O)c3ccc(Br)cc3)cc2[N+](=O)[O-])CC1
→ 9%	5%	15µM*	?	-6%
23. NC(=O)CC(NC(=O)c1ccc(Br)cc1)c1ccc(N2CCC(Br)CC2)c([N+](=O)[O-])c1 (centres undefined)
→ 0%	-7%	12µM*	18µM*	?
24. COc1ccc(-n2c(SCC(=O)N/N=C(\C)c3cccnc3)nc3ccccc3c2=O)cc1
→ .	-4%	?	-8%	-5%

# High-throughput results from PubChem.
